The chains behind the UniProt entries cited, without tags or fusion partners.
UniProt Q04609, whole entry: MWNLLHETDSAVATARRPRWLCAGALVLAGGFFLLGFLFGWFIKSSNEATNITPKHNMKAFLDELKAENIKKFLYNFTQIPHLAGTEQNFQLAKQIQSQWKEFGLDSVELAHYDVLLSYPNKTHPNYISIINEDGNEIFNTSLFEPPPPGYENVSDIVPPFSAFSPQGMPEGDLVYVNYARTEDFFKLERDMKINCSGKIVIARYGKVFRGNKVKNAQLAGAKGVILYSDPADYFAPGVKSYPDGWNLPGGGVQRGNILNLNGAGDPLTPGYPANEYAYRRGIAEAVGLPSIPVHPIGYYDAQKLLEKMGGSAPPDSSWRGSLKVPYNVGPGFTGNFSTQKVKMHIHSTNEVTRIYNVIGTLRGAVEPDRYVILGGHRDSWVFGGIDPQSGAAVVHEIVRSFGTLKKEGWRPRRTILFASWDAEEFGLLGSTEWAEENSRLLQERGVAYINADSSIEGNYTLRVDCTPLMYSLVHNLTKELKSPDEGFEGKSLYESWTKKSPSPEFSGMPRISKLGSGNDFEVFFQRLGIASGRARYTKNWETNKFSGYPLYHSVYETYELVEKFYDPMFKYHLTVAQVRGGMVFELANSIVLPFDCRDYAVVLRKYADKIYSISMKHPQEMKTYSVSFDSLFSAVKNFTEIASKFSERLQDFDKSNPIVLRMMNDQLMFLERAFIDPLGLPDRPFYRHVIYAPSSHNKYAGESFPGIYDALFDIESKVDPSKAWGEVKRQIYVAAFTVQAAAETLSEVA

In US12221649B2 (priority 2018, dated 2025):

Molecular target: PSMA (Homo sapiens, UniProt Q04609)
Experiment: Enzyme assay of probes and PSMA (fluorescence increase)
Format: biochemical
Details: 10 μM inhibitor, 10 μM 4MU-tSoul-GE, 22 ng PSMA
Method: An enzyme assay was performed using the synthesized 4MU-tSoul-AE and PSMA.
Here, 10 μM 4MU-tSoul-AE in TBS buffer was incubated at 37° C. with 22 ng PSMA in the presence or absence of 10 μM inhibitor (2-PMPA) containing 0.1% DMSO as a co-solvent. Ex/Em=355/460 nm. n=3.
An enzyme assay was performed using the synthesized 4MU-tSoul-GE and PSMA. […] It can be said that this indicates strength of the present molecular design in which not only C-terminal amino acid to be cleaved by carboxypeptidase but also a structure of adjacent amino acid can be flexibly selected (FIG. 9).
Here, FIG. 9(a) illustrates a reaction scheme of 4MU-tSoul-GE and PSMA. In FIG. 9(b), 10 μM 4MU-tSoul-GE in TBS buffer was incubated at 37° C. with 22 ng PSMA in the presence or absence of 10 μM inhibitor (2-PMPA) containing 0.1% DMSO as a co-solvent. Ex/Em=355/460 nm. n=3.

O=C(O)CCC(CP(=O)(O)O)C(=O)O (stereo not shown) [Compound 2-PMPA, reference compound]
effect of inhibitor on the increase in fluorescence of 4MU-tSoul-GE with PSMA: suppressed
